Reference: patent US6521751B1, “Recombinant nucleic acid sequences and methods for determining both genotoxicity and mutagenicity of a sample and the kinetics of the genotoxicity” (Vlaamse Instelling voor Technologisch Onderzoek (VITO), priority 1998, dated 2003)

Assays:
E. coli (sfiA-lacZ) = settings: cited from earlier work
[1] = tested on: novel biosensor systems in E. coli and in S. typhimurium strains; assay: Subject SOS promoter-lux systems (general statements); settings: from a concentration of 7,5 ng/ml

For `CO[C@@]12[C@H](COC(N)=O)C3=C(C(=O)C(C)=C(N)C3=O)N1C[C@@H]1N[C@@H]12` [Mitomycin C], the “SOS (result)” value (E. coli (sfiA-lacZ)) is given as “pos” and the induction ratios [1] is given as “higher than 2”.
